From publication doi:10.1101/2025.08.29.673196v2

By UniProt entry, the sequences of proteins in these tests, tags left out. Residues count along the entry.
UniProt P18627, 23-450 limits assumed: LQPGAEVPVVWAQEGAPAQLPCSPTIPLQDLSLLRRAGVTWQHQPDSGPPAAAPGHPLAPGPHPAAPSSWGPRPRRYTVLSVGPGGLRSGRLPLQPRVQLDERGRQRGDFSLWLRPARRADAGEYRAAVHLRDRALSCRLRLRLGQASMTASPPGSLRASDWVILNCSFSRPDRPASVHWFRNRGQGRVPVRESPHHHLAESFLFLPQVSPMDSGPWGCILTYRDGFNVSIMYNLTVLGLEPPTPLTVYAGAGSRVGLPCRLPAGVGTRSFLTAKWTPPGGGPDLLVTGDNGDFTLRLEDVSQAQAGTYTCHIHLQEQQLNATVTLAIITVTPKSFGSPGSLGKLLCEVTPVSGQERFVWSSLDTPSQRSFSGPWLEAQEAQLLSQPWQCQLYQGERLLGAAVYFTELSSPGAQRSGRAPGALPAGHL

target: LAG-3 (biotinylated LAG-3 of HTRF LAG-3/MHCII binding assay) (Homo sapiens, UniProt P18627); experiment: HTRF LAG-3/MHCII binding inhibition; details: displacement of MHCII; room temperature, 3 h

IC50 | SMILES
24 nM | COc1cc(C#N)c(Cl)cc1NC(=O)C(=O)Nc1ccc(Oc2ccc(C(=O)O)cc2)c(C(=O)Nc2ccc3c(C)cc(=O)oc3c2)c1
313 nM | CCOC(=O)c1c(NC(=O)C(=O)Nc2ccc(Oc3ccc(C(=O)O)cc3)c(C(=O)Nc3ccc4c(C)cc(=O)oc4c3)c2)sc2c1CCCC2
62 nM | Cc1cc(=O)oc2cc(NC(=O)c3cc(NC(=O)C(=O)Nc4cc(Cl)c(C#N)cc4S(C)(=O)=O)ccc3Oc3ccc(C(=O)O)cc3)ccc12
139 nM | Cc1cc(=O)oc2cc(NC(=O)c3cc(NC(=O)C(=O)Nc4ccc(C#N)c(Cl)c4)ccc3Oc3ccc(C(=O)O)cc3)ccc12
